This is a selection; strong and weak results do not stand in their true shares. The source made the active and inactive calls.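 The calls were made as follows: active = activation above 40%, about the mean plus 3 SD, also judged a hit on visual image review; inconclusive = activation above 40% but not a hit on visual review; inactive = activation not above 40% and no visual hit.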

The assay can be described thus: enhancers of NFkB p65 translocation in HUVEC – imaging, IL-1B stimulus, high-content imaging, primary screen (AID 819).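 Also: percent activation is computed from the nuclear over cytoplasmic p65 intensity ratio.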 Conditions: HUVEC IL-1B NFkB p65 nuclear translocation imaging; at 2 µM; stronger effect = higher value.
As to `N#CC1(Nc2ccccc2)CCN(CCc2ccccc2)CC1`, the activation was inactive: 23.6%.

Regarding `O=C(NCC1(N2CCOCC2)CCCCC1)c1cc(=O)[nH]c2ccccc12`, the activation was inactive: -4.33%. For the compound `CN1CCC(Nc2cccc(F)c2)CC1`, the activation was inactive: 2.11%. As for `O=C(NCC1(N2CCOCC2)CCCCC1)c1cc2ccccc2o1`, the activation is inactive: -6.74%. As for `O=C(OC1CN2CCC1CC2)C1c2ccccc2Oc2ccccc21` (stereo not given), the activation was inactive: 23.4%. With `COc1ccc(NC2CCN(CCc3ccccc3)CC2)c(OC)c1`, the activation was inactive: -4.3%. On to `CCOc1ncccc1C(=O)NCC1(N2CCOCC2)CCCCC1`, for which the activation was inactive: -12.6%. Take `CCC(CO)(C(=O)OC1CN2CCC1CC2)c1ccccc1` (stereo not given): the activation is inactive: 1.43%. Consider `N/C(=N\O)c1c(N)no[n+]1[O-]`, for which the activation was inactive: 29.9%. As for `c1ccc(CN2CCC(Nc3ccccc3)CC2)cc1`, the activation was inactive: -1.55%.

Source of the values: PubChem BioAssay AID819 (Columbia University Molecular Screening Center, 2007).
